From US12570607B2, “Compound as cyclin-dependent kinase 9 inhibitor and use thereof” (CSPC Zhongqi Pharmaceutical Technology (Shijiazhuang) Co., …, priority 2019, dated 2026) come the findings set out here.

Protein sequences, listed by entry. Tags and fused reporters are not part of them.
UniProt Q12809, whole entry: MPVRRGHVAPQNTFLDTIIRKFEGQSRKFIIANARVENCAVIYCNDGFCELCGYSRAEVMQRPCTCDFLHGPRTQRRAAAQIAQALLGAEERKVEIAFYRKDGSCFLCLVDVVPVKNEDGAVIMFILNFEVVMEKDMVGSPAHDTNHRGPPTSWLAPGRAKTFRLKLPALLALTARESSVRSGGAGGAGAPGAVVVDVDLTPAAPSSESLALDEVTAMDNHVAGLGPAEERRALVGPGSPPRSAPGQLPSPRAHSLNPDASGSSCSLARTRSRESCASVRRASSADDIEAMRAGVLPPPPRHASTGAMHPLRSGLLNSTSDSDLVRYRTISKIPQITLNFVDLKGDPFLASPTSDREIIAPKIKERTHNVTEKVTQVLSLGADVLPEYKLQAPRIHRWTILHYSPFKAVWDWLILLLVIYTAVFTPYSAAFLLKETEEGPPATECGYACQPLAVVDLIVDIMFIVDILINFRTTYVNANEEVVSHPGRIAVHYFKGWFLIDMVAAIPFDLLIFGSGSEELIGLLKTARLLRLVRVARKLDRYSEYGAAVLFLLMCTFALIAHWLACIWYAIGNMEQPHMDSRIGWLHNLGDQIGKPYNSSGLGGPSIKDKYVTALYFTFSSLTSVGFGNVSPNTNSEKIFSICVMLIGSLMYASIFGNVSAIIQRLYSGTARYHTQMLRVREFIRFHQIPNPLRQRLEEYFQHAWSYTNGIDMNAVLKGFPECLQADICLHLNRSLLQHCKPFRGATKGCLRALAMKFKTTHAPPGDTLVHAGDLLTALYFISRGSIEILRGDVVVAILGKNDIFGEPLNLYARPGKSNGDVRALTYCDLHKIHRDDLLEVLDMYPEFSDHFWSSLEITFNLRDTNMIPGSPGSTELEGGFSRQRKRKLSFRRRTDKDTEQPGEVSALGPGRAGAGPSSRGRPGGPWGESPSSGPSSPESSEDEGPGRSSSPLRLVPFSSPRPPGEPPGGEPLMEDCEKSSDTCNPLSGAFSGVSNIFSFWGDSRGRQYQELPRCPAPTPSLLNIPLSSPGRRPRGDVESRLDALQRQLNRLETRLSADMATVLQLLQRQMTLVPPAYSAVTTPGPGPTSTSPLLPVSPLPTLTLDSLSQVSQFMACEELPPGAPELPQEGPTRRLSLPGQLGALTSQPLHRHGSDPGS

In data set [1] the test system is MV4;11 cells. Kind of data set: In vitro MV4;11 cell proliferation inhibition (MTT method). The following applies: read-out: IC50 cell proliferation inhibition. For orientation: Tetrazolium assays rely on reduction of a dye to a coloured formazan, in cell work by metabolically active cells.
Data set [2] addresses hERG channel (Homo sapiens (Human), UniProt Q12809).

Bounds are passed on as bounds.

On to `CCOc1cc(F)ccc1-c1cc(NC(=O)[C@H]2CCC[C@@H](NC(C)=O)C2)ncc1F`, for which the IC50 in data set [1] was 0.043 µM; in data set [2], above 30 µM. `COc1cc(Cl)ccc1-c1cc(NC(=O)[C@H]2CCC[C@@H](NC(C)=O)C2)ncc1F` showed an IC50 in data set [2] above 30 µM.
